The values below are quoted from earlier work in patent US20060177438A1, “Methods of altering absorption of hydrophobic compounds” (New England Medical Center, priority 2005, published 2006).

Sequences of proteins named here, by UniProt entry; tags and fusion partners are left off.
UniProt P32239, whole entry, species assumed: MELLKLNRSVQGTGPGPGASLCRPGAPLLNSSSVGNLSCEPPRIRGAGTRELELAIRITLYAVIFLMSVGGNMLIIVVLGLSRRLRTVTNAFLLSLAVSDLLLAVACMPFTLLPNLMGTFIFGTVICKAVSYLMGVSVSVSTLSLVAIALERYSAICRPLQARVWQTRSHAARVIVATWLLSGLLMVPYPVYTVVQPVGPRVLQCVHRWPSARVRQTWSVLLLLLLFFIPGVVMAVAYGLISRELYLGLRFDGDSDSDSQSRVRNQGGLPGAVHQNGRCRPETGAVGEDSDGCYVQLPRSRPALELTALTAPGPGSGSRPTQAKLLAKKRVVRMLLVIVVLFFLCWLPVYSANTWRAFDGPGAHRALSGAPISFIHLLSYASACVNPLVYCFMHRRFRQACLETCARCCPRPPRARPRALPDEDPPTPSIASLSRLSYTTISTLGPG
UniProt P32238, whole entry: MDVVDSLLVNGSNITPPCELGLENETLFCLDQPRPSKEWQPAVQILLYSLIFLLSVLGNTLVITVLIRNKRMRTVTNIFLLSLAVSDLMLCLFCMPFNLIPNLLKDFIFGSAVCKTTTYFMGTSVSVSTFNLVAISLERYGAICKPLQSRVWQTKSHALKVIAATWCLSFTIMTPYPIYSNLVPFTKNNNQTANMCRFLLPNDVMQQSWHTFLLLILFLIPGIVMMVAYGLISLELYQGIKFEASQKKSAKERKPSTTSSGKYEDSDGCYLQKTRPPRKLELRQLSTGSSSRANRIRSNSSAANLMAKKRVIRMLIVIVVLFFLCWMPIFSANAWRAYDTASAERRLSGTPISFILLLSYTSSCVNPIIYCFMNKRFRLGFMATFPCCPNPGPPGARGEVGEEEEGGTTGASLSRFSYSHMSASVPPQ

Data set [1] has as its target T1, CCK 2 receptor (CCK-2R) (Homo sapiens, UniProt P32239). As to conditions: brain membranes; cited from earlier work.
For data set [2], the target named is T1, CCK 2 receptor (CCK-2R). The conditions noted are these: parietal cells; cited from earlier work.
Another data set addresses CCK 1 receptor (Homo sapiens, UniProt P32238). The conditions noted are these: cited from earlier work.

Like-named read-outs stand apart in the source and are kept apart here.

Take Cholecystokinin [CCK]: the “higher affinity for CCK than for gastrin” value on CCK 2 receptor (CCK-2R) [1] is recorded as 6-10 fold; at CCK 2 receptor (CCK-2R) [2], 1-2 fold. Further, the “greater affinity for CCK than for gastrin” value at CCK 1 receptor is greater than 100 times.
